# Curated experimental data: melting point values

The melting point is given in degrees Celsius. The databases behind each value are named after "via".

{"smiles": "CC1(C)CC[C@]2(C(=O)O)CC[C@]3(C)C(=CC[C@@H]4[C@@]5(C)C[C@@H](O)[C@H](O)C(C)(C)[C@@H]5CC[C@]43C)[C@@H]2C1", "name": "Maslinic acid", "mp (°C)": "249.5", "via": "PubChem"}
{"smiles": "CC(=O)O.CCCCCCCCCCCCCC/C=C\\CCNCCCNCCCN", "mp (°C)": "144", "via": "eChemPortal"}
{"smiles": "O=C(O)c1ccc(Oc2ccc(F)cc2)cc1", "name": "4-(4-Fluorophenoxy)benzoic acid", "mp (°C)": "172", "via": "OCHEM"}
{"smiles": "CCOc1ccc(S(=O)(=O)Cl)cc1", "name": "4-ethoxybenzenesulfonyl chloride", "mp (°C)": "42.5", "via": "OCHEM"}
{"smiles": "Cc1ccc(OCCCC(=O)O)cc1", "name": "4-(4-methylphenoxy)butanoic acid", "mp (°C)": "84", "via": "OCHEM"}
{"smiles": "O=C(Nc1ccc(C(=O)O)c(O)c1)c1cc(Cl)cc(Cl)c1", "name": "4-(3,5-Dichlorobenzamido)-2-hydroxybenzoic acid", "mp (°C)": "269", "via": "OCHEM"}
{"smiles": "O=C(O)c1ccc(NC(=O)C23CC4CC(CC(C4)C2)C3)cc1", "name": "4-[(1-adamantylcarbonyl)amino]benzoic acid", "mp (°C)": "285", "via": "OCHEM"}
{"smiles": "Cc1cc(C)c(S(=O)(=O)N2CCCC2C(=O)O)c(C)c1", "stereo": "configuration not stated", "name": "1-(mesitylsulfonyl)pyrrolidine-2-carboxylic acid", "mp (°C)": "85", "via": "OCHEM"}
{"smiles": "NS(=O)(=O)N1CCNCC1", "name": "1-PIPERAZINESULFONAMIDE", "mp (°C)": "165", "via": "OCHEM"}
{"smiles": "Cc1c(C)c(C)c(C(=O)CCl)c(C)c1C", "name": "2-chloro-1-(pentamethylphenyl)ethanone", "mp (°C)": "71", "via": "OCHEM"}
{"smiles": "N#CCc1nccn1Cc1ccccc1", "name": "(1-benzyl-1H-imidazol-2-yl)acetonitrile", "mp (°C)": "105", "via": "OCHEM"}
{"smiles": "O=C(O)COc1ccc(-c2ccccc2)cc1", "name": "(biphenyl-4-yloxy)acetic acid", "mp (°C)": "196", "via": "OCHEM"}
{"smiles": "Nc1cc2c(cc1[N+](=O)[O-])OCCCO2", "name": "8-nitro-3,4-dihydro-2H-1,5-benzodioxepin-7-amine", "mp (°C)": "75", "via": "OCHEM"}
{"smiles": "Cl.NCc1ccc(S(=O)(=O)N2CCOCC2)cc1", "mp (°C)": "122", "via": "OCHEM"}
{"smiles": "O=C(O)c1cc(C(=O)O)cc(S(=O)(=O)O)c1", "name": "5-Sulfobenzene-1,3-dicarboxylic acid", "mp (°C)": "257.5", "via": "eChemPortal"}
{"smiles": "CN(C)c1ccc(C2NCC(CCl)O2)cc1", "stereo": "configuration not stated", "name": "4-[5-(Chloromethyl)-1,3-oxazolidin-2-yl]-N,N-dimethylaniline", "mp (°C)": "105", "via": "OCHEM"}
{"smiles": "Cc1sc(N)nc1-c1cccc(Cl)c1", "name": "4-(3-chlorophenyl)-5-methyl-1,3-thiazol-2-amine", "mp (°C)": "92", "via": "OCHEM"}
{"smiles": "Cc1ccc(CN2CC(C(=O)O)CC2=O)cc1", "stereo": "configuration not stated", "mp (°C)": "154", "via": "OCHEM"}
{"smiles": "Cc1ccc(S(=O)(=O)N(C)c2ccc(O)cc2)cc1", "name": "N-(4-Hydroxyphenyl)-N,4-dimethylbenzene-1-sulfonamide", "mp (°C)": "138", "via": "OCHEM"}
{"smiles": "NNS(=O)(=O)c1ccc(Br)cc1", "name": "Benzenesulfonic acid, 4-bromo-, hydrazide", "mp (°C)": "226", "via": "OCHEM"}
{"smiles": "O=C(O)c1ccc(Sc2ccccc2)c([N+](=O)[O-])c1", "name": "3-nitro-4-(phenylthio)benzoic acid", "mp (°C)": "229", "via": "OCHEM"}
{"smiles": "CC(C)c1nnc(N)o1", "name": "5-(Propan-2-yl)-1,3,4-oxadiazol-2-amine", "mp (°C)": "185", "via": "OCHEM"}
{"smiles": "CC(=O)c1cc(C)cc(C(C)=O)c1O", "name": "1,1'-(2-Hydroxy-5-methyl-1,3-phenylene)di(ethan-1-one)", "mp (°C)": "51", "via": "OCHEM"}
{"smiles": "Cc1ccc(N)c(OCc2ccccc2)c1", "name": "2-(benzyloxy)-4-methylaniline", "mp (°C)": "69", "via": "OCHEM"}
{"smiles": "Cc1ccn2cc(C(=O)O)nc2c1", "name": "7-methylimidazo[1,2-a]pyridine-2-carboxylic acid", "mp (°C)": "227", "via": "OCHEM"}
{"smiles": "CCn1c(=O)[nH]c2ccccc21", "name": "1-Ethyl-2-benzimidazolinone", "mp (°C)": "122", "via": "OCHEM"}

The 2 lowest values of mp among the entries above:

{"smiles": "CCOc1ccc(S(=O)(=O)Cl)cc1", "name": "4-ethoxybenzenesulfonyl chloride", "mp (°C)": "42.5", "via": "OCHEM"}
{"smiles": "CC(=O)c1cc(C)cc(C(C)=O)c1O", "name": "1,1'-(2-Hydroxy-5-methyl-1,3-phenylene)di(ethan-1-one)", "mp (°C)": "51", "via": "OCHEM"}

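OPERA's authors assembled the values from existing databases and did not measure them anew. A listed value is a point estimate from one report or more. Method, purity and exact conditions of the single measurements are not given. Where a salt, mixture or single isomer is drawn, the source does not say that exactly this form was tested. Some upstream entries may be estimates or bounds without being marked so.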

Values as listed in the OPERA 2.9 repository of K. Mansouri.